Results taken from paper PMC5684552, “A Molecular Basis for the Inhibition of Transient Receptor Potential Vanilloid Type 1 by Gomisin A” (Evidence-based Complementary and Alternative Medicine : eCAM, 2017).

Sequences of proteins named here, by UniProt entry; tags and fusion partners are left off.
UniProt Q8NER1, whole entry: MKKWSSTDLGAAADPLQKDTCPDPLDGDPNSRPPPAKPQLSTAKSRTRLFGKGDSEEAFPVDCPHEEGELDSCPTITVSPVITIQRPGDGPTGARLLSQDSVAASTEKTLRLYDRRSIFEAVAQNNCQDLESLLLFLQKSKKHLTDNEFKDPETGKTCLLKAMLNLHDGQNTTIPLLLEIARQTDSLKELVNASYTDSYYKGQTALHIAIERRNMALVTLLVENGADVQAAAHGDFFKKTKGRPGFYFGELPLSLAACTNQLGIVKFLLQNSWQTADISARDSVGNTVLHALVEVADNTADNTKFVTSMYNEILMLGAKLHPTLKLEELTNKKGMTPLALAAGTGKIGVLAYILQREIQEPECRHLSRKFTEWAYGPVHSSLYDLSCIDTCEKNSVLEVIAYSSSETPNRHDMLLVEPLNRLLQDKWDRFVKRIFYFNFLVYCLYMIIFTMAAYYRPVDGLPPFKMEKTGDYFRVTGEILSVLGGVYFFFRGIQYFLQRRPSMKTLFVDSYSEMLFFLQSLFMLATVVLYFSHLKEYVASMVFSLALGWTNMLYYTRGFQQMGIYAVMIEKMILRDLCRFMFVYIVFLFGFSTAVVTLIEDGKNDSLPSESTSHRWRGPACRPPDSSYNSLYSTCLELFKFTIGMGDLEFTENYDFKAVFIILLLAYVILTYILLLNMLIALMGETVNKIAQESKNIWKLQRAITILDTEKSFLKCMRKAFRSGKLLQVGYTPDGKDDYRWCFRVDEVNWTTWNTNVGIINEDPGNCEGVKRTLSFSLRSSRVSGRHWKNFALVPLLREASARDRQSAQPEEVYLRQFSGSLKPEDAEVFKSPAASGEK

Biological target: human TRPV1 receptor channel (Homo sapiens, UniProt Q8NER1)
Assay: Two-electrode voltage clamp of capsaicin-induced current in Xenopus oocytes expressing wild type human TRPV1
Type: cell-based
Conditions: capsaicin (1 μM)-stimulated inward current, holding potential −80 mV

gomisin A
IC50: 62.1 ± 3.7 µM
